Among the data in US20100185419A1, “ALGORITHM FOR DESIGNING IRREVERSIBLE INHIBITORS” (Avila Therapeutics, Inc., priority 2008, published 2010) are inhibition values, retold here.

Protein sequences, listed by entry. Tags and fused reporters are not part of them. Residues count along the entry.
UniProt P10721, 26-976: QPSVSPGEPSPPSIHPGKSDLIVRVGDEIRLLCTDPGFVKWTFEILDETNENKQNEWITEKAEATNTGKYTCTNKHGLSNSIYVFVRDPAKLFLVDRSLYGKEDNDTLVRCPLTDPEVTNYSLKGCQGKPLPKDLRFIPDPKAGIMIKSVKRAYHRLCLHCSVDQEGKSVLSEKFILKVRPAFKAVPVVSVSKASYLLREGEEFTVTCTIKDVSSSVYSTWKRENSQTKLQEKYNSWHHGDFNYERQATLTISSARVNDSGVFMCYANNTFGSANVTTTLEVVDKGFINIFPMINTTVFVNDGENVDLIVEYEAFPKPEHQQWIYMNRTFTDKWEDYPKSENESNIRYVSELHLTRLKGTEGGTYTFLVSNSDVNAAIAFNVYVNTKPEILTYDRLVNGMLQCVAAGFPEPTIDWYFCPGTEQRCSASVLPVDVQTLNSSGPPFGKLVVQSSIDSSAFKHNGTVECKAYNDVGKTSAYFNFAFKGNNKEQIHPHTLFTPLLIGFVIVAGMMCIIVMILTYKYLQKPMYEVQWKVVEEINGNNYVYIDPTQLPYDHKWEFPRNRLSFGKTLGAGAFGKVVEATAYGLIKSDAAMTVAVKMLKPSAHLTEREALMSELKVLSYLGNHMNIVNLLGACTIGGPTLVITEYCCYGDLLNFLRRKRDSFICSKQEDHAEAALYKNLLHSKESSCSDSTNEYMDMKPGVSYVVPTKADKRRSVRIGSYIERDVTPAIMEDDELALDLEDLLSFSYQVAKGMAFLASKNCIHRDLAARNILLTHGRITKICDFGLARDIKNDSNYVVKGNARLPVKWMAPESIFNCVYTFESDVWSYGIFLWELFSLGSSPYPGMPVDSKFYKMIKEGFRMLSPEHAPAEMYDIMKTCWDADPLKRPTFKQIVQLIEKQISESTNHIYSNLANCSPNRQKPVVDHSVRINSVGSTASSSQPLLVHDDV

SMILES strings stand for the structures.

The target of the assay is c-KIT (Homo sapiens, UniProt P10721). The assay can be described thus: cKIT inhibition assay (electrophoretic mobility shift). In kind it is biochemical. Set-up: purchased Millipore 14-559. To be noted: read-out: % Inhibition of c-KIT. (In general: A gel shift assay detects complexes by their altered migration in electrophoresis.)

For the compound `C=CC(=O)Nc1ccc(C(=O)Nc2ccc(C)c(Nc3nccc(-c4cccnc4)n3)c2)cc1C(F)(F)F` [Compound 2, 4-Acrylamido-N-(4-methyl-3-(4-pyridin-3-yl)pyrimidin-2-ylamino)phenyl-3-(trifluoromethyl)benzamide], the inhibition at 1 µM was 88%.

By inhibition is commonly meant how much of the control response was suppressed.
